Target: D(2) dopamine receptor (Homo sapiens, UniProt P14416)
Test: Displacement of [3H]raclopride from human Dopamine receptor D2A

Protein sequences, listed by entry. Tags and fused reporters are not part of them.
UniProt P14416, whole entry: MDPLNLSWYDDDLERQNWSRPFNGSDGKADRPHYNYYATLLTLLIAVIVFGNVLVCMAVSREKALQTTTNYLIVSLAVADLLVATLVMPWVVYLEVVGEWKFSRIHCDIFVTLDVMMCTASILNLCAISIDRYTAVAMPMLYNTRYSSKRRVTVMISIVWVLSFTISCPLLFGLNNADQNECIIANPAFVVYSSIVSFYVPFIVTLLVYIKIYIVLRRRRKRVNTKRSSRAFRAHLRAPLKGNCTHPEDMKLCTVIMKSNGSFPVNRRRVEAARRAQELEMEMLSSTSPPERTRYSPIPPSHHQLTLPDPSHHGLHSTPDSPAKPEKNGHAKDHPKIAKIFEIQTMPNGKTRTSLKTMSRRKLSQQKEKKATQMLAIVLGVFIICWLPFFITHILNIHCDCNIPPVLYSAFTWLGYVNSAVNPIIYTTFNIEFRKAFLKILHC

CCCN1CCc2cccc3c2[C@H]1Cc1cccc(O)c1-3 was tested. Which Ki did it give?
The Ki was 0.0127 µM.

Reference: ChEMBL document CHEMBL1129625, “11-substituted (R)-aporphines: synthesis, pharmacology, and modeling of D2A and 5-HT1A receptor interactions” (J Med Chem, 1996)
